Earlier results as cited in patent publication US6525025B2, “Gamma-ketoacid dipeptides as inhibitors of caspase-3” (Merck Frosst Canada & Co., priority 2000, dated 2003).

Legend:
caspase-1 = target: T1, caspase-1 (Homo sapiens, UniProt P29466)
T1 sequence (P29466 120-297 limits assumed): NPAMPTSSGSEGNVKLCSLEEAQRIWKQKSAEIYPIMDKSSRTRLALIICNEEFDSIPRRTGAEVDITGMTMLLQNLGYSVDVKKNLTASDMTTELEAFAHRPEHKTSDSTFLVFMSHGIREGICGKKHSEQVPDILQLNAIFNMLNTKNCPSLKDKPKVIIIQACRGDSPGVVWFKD
T1 sequence (P29466 317-404 limits assumed): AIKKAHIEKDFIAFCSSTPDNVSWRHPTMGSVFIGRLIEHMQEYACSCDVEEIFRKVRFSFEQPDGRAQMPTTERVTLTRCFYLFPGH

caspase-3 = target: T2, caspase-3 (Homo sapiens, UniProt P42574)
T2 sequence (P42574 29-175 limits assumed): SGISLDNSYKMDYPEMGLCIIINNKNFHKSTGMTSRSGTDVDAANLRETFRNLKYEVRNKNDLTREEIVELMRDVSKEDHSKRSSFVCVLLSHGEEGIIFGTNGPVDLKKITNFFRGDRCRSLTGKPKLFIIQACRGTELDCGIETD
T2 sequence (P42574 176-277 limits assumed): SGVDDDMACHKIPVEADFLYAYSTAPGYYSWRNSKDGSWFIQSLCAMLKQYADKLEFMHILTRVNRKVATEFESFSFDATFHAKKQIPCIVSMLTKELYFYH

## Ac-DEVD-CHO
caspase-1
  inhibition of caspase-1 (in words): weaker but reasonable inhibitor of caspase-1
caspase-3
  Ki: < 1 nM
